ChEMBL document CHEMBL2176934, “Discovery of highly selective and orally active lysophosphatidic acid receptor-1 antagonists with potent activity on human lung fibroblasts” (J Med Chem, 2012)

Amino acid sequences for entries named in this document (tags omitted). A change or cut given only in a name is not applied to a line headed by its entry.
UniProt Q92633: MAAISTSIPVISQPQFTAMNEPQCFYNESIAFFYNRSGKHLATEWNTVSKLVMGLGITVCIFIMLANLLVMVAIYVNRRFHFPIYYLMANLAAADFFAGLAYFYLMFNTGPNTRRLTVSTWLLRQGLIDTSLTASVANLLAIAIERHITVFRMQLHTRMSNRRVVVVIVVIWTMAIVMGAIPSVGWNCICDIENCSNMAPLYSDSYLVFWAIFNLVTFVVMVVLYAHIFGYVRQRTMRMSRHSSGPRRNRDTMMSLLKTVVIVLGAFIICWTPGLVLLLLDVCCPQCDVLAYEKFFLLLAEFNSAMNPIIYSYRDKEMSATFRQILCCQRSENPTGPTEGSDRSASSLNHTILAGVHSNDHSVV

Target: Lysophosphatidic acid receptor 1 (Homo sapiens, UniProt Q92633)
Assay: Antagonist activity at human recombinant LPA1 expressed in chem-1 cells assessed as inhibition of LPA-induced intracellular calcium mobilization incubated for 30 mins prior to LPA-challenge measured over 100 secs by FLIPR assay
Type: functional, cell-based
Procedure, shortened: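 Calcium-optimized Chem-1 cells stably expressing human LPA1 or LPA3 (parental line with ionomycin as counterscreen), seeded 10,000/well the day before. Calcium-4 dye in HBSS/20 mM HEPES/2.5 mM probenecid loaded 30 min at 37 °C; compound added, 30 min at room temperature in the dark; LPA (18:1) 1 μM final. Peak fluorescence read over 100 s; IC50 from 10-concentration 4-parameter logistic fit, mean of at least three runs.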

IC50: 34.5 nM
Compound: Cc1nnn(-c2ccc(-c3ccc(C4(C(=O)O)CC4)cc3)cc2)c1NC(=O)O[C@H](C)c1ccccc1F
